One block for each compound: values may come before it.
How the values were obtained:
[1] = biological target: Solute carrier family 23 member 2 (Homo sapiens) (UniProt Q9UGH3); conditions: 75 uM
[2] = tested on: O=C(Cc1ccccc1Nc1c(Cl)cccc1Cl)OC[C@H](O)[C@H]1OC(=O)C(O)=C1O; conditions: 3 uM
[3] = tested on: O=C1O[C@H]([C@@H](O)COC(=O)C2CCCNC2)C(O)=C1O; conditions: 5 mM
[4] = tested on: O=C(Cc1ccccc1Nc1c(Cl)cccc1Cl)OC[C@H](O)[C@H]1OC(=O)C(O)=C1O; conditions: 250 nM
[5] = tested on: O=C1O[C@H]([C@](O)(Br)CO)C(O)=C1O; conditions: 5 uM
[6] = tested on: O=C(Cc1ccccc1Nc1c(Cl)cccc1Cl)OC[C@H](O)[C@H]1OC(=O)C(O)=C1O; conditions: 750 nM
[7] = tested on: O=C1O[C@H]([C@@H](O)COC(=O)c2cc(O)c3ccccc3n2)C(O)=C1O; conditions: 500 uM
[8] = tested on: O=C1O[C@H]([C@@H](O)COC(=O)c2cc(O)c3ccccc3n2)C(O)=C1O; conditions: 100 uM
[9] = biological target: Solute carrier family 23 member 2 (Homo sapiens) (UniProt Q9UGH3); conditions: 5 mM
[10] = biological target: Solute carrier family 23 member 2 (Homo sapiens) (UniProt Q9UGH3); conditions: 2 mM
[11] = biological target: Solute carrier family 23 member 2 (Homo sapiens) (UniProt Q9UGH3); conditions: 250 nM
[12] = biological target: Solute carrier family 23 member 2 (Homo sapiens) (UniProt Q9UGH3); conditions: 750 nM
[13] = biological target: Solute carrier family 23 member 2 (Homo sapiens) (UniProt Q9UGH3); conditions: 3 uM
[14] = biological target: Solute carrier family 23 member 2 (Homo sapiens) (UniProt Q9UGH3)
[15] = biological target: Solute carrier family 23 member 2 (Homo sapiens) (UniProt Q9UGH3); conditions: 100 uM
[16] = biological target: Solute carrier family 23 member 2 (Homo sapiens) (UniProt Q9UGH3); conditions: 500 uM

By UniProt entry, the sequences of proteins in these tests, tags left out. Where a name states a change or a piece, a line headed by the entry shows the natural chain unless it says otherwise.
UniProt Q9UGH3: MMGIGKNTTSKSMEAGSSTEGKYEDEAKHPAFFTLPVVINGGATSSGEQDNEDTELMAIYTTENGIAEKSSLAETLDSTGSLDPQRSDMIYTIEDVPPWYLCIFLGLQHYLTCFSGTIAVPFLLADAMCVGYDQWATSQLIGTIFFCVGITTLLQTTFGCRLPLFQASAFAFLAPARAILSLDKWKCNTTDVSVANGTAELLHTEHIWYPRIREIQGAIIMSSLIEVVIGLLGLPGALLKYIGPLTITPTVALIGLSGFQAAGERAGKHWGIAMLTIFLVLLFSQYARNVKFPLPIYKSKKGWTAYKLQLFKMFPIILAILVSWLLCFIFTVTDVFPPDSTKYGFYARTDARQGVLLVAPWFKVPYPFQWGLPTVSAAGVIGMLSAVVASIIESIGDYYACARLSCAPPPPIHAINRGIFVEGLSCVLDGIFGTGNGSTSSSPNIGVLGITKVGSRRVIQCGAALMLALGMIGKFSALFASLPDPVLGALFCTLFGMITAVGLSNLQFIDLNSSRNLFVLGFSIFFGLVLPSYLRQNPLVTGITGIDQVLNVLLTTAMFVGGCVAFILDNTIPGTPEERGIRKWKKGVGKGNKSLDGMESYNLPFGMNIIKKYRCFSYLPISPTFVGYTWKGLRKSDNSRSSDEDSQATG

- Kt [1]: 816 µM
Compound: O=C1O[C@H]([C@](O)(Br)CO)C(O)=C1O

Compound: Solute carrier family 23 member 2 (Homo sapiens), Q9UGH3
- Vmax (nM hr-1 (10e6*cells)-1) [2]: 4.4
- Vmax (nM hr-1 (10e6*cells)-1) [3]: 4.1
- Vmax (nM hr-1 (10e6*cells)-1) [4]: 4.5
- Vmax (nM hr-1 (10e6*cells)-1) [5]: 4.1
- Vmax (nM hr-1 (10e6*cells)-1) [6]: 4.1
- Vmax (nM hr-1 (10e6*cells)-1) [7]: 4
- Vmax (nM hr-1 (10e6*cells)-1) [8]: 4.6

Compound: O=C1O[C@H]([C@@H](O)COC(=O)C2CCCNC2)C(O)=C1O (stereo partly specified)
- Kt [9]: 165 µM
- Kt [10]: 94 µM

- Kt [11]: 73 µM
- Kt [12]: 188 µM
- Kt [13]: 609 µM
Compound: O=C(Cc1ccccc1Nc1c(Cl)cccc1Cl)OC[C@H](O)[C@H]1OC(=O)C(O)=C1O

- Kt [14]: 36 µM
Compound: O=C1O[C@H]([C@@H](O)CO)C(O)=C1O

- Kt [15]: 119 µM
- Kt [16]: 296 µM
Compound: O=C1O[C@H]([C@@H](O)COC(=O)c2cc(O)c3ccccc3n2)C(O)=C1O
